{
  "sequences": {"note": "Chains of the proteins cited; added tags and fusions are not shown. Residues count along the entry.", "UniProt P00519, whole entry": "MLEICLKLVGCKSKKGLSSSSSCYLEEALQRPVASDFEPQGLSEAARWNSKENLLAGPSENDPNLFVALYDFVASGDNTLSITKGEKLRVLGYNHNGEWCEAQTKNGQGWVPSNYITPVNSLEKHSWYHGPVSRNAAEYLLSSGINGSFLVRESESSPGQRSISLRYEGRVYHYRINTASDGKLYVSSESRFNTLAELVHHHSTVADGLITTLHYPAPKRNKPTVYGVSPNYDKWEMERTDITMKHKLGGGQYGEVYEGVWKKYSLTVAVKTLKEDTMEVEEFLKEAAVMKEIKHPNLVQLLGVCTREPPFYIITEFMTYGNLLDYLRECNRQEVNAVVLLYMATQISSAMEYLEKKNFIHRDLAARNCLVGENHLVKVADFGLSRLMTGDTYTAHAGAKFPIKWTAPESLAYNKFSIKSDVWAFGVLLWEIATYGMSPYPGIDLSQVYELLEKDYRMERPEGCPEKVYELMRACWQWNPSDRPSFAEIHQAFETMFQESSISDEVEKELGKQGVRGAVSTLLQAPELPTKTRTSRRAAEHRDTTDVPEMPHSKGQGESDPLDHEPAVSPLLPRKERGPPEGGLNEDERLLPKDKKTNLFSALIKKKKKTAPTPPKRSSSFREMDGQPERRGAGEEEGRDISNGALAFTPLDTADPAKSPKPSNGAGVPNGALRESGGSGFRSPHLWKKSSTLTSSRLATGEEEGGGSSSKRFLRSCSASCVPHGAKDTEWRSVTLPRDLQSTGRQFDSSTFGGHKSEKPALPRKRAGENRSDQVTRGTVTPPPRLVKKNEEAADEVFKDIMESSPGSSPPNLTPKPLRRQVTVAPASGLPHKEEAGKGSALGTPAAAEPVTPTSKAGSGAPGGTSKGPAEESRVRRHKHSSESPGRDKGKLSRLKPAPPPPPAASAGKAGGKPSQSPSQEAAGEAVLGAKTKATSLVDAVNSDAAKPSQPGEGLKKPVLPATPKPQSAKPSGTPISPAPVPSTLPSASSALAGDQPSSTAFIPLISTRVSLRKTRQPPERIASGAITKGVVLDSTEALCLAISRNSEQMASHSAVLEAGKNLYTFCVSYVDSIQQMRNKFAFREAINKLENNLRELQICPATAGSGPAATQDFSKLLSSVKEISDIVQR", "UniProt Q06187, whole entry": "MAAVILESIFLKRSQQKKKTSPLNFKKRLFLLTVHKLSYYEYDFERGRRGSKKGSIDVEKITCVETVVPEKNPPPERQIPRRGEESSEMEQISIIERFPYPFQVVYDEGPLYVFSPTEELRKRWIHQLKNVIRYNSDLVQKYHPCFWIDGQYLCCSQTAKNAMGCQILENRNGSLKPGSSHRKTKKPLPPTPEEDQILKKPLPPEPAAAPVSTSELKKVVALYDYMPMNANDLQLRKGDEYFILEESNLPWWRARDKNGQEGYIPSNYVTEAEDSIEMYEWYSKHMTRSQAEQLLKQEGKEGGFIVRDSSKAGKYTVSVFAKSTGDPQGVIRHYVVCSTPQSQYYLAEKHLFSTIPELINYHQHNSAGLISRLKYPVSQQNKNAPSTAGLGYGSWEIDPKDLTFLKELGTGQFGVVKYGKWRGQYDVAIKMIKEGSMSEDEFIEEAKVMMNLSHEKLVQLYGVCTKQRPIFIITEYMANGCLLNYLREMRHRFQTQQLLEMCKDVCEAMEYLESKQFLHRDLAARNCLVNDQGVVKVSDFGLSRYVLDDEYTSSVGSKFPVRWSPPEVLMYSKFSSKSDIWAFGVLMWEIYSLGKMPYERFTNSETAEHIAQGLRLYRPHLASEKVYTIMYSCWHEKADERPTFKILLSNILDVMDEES", "UniProt P08581, 25-1390 limits assumed": "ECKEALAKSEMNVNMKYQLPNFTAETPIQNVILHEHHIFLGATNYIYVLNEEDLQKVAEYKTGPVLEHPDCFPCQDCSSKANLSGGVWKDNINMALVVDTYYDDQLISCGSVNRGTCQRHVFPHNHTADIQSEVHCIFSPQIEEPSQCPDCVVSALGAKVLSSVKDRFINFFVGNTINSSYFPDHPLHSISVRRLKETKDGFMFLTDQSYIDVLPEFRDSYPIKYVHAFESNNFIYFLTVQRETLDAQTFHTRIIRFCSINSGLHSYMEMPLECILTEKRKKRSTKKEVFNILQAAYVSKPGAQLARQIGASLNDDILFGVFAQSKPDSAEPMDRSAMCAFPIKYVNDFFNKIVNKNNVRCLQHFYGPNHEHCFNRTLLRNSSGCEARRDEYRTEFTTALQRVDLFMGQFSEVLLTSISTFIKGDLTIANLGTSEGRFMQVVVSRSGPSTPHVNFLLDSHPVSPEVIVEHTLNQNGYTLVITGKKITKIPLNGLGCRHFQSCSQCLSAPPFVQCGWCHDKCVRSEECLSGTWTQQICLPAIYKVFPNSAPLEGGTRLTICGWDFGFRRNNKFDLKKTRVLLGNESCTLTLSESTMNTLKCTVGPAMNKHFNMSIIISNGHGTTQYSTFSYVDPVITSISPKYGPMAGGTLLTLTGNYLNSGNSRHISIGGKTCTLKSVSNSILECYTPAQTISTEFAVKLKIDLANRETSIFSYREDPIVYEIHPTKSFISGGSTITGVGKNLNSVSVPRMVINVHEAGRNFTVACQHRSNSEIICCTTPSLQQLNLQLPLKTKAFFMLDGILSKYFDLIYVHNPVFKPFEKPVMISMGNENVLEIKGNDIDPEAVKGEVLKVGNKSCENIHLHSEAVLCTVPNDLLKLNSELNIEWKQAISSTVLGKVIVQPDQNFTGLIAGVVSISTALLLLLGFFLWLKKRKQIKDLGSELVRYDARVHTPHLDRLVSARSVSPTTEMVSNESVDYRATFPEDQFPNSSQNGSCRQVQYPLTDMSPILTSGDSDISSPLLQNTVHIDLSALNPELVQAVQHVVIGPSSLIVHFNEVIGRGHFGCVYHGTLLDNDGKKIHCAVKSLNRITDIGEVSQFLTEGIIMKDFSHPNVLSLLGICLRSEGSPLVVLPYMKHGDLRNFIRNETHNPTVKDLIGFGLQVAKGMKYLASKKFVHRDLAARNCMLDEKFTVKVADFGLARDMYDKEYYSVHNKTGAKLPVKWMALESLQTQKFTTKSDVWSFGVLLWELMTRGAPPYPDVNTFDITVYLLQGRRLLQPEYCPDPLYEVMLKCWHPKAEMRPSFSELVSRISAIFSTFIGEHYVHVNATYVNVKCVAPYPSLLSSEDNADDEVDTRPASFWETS", "UniProt P06239, whole entry": "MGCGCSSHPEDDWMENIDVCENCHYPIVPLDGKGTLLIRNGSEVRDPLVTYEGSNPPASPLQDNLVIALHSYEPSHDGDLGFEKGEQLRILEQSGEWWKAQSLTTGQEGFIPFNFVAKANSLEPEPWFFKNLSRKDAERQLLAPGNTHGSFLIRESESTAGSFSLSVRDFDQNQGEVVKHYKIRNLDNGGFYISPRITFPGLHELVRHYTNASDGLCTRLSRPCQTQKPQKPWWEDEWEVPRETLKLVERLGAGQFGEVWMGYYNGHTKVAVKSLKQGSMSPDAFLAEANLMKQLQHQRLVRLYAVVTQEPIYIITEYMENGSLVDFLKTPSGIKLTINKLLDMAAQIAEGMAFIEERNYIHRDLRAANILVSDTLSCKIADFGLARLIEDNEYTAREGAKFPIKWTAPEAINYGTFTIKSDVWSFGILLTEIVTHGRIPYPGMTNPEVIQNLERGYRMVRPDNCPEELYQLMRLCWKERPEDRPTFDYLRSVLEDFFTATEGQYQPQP", "UniProt P35991, whole entry": "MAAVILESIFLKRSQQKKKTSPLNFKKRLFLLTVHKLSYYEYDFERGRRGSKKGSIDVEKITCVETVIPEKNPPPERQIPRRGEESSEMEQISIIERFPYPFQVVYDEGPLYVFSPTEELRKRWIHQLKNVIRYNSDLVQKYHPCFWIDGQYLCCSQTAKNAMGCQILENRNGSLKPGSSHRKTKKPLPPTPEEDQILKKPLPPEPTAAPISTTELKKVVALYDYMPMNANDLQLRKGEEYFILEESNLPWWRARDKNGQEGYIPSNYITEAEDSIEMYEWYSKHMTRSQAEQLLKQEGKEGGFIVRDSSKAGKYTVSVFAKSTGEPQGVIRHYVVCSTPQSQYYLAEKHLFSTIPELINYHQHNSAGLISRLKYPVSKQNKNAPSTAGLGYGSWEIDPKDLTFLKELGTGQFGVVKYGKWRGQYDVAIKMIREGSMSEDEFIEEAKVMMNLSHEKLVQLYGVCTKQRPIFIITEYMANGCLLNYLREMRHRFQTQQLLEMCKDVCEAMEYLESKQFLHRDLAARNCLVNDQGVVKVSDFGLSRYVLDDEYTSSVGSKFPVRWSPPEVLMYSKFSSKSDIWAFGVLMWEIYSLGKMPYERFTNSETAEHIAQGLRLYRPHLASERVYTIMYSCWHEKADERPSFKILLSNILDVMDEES"},
  "source": "patent US8987233B2",
  "about": "“Bruton's tyrosine kinase activity probe and method of using” (Pharmacyclics, Inc., priority 2006, dated 2015)",
  "key": {"Abl": {"target": "Abl (Homo sapiens, UniProt P00519)", "assay": "TR-FRET kinase assay, Abl", "assay_type": "biochemical", "details": "read-out: IC50 Abl; ATP at Km"}, "Btk": {"target": "Btk (Homo sapiens, UniProt Q06187)", "assay": "TR-FRET kinase assay, Btk", "assay_type": "biochemical", "details": "read-out: IC50 Btk; ATP at Km", "procedure": "(§1) Kinase activity for Btk, Abl, c-met, ITK, LCK, and EGFR was determined using a time-resolved fluorescence resonance energy transfer (TR-FRET) methodology. Measurements were performed in a reaction volume of 50 μl using 96-well assay plates. […] The reaction was quenched by the addition of 1.2 equivalents of EDTA (relative to divalent cation) in 25 μL of 1× Lance buffer (Perkin-Elmer). Streptavidin-APC (Perkin-Elmer) and Eu-labeled p-Tyr100 antibody (Perkin-Elmer) in 1× Lance buffer were added in a 25 μL volume to give final concentrations of 100 nM and 2.5 nM, respectively, and the mixture was allowed to incubate for one hour. The TR-FRET signal was measured on a multimode plate reader with an excitation wavelength of 330 nm and detection wavelengths of 615 and 665 nm. Activity was determined by the ratio of the fluorescence at 665 nm to that at 615 nm. For each compound, enzyme activity was measured at various concentrations of compound. Negative control reactions were performed in the absence of inhibitor in replicates of six, and two no-enzyme controls were used to determine baseline fluorescence levels. Inhibition constants {Ki(app)} were obtained using the program BatchKi (23). […]; for all kinases, [ATP]=KmATP, [Btk]total=0.5 nM and [Lck]total=6 nM."}, "c-met": {"target": "c-met (Homo sapiens, UniProt P08581)", "assay": "TR-FRET kinase assay, c-met", "assay_type": "biochemical", "details": "read-out: IC50 c-met; ATP at Km", "procedure": "as §1"}, "Lck": {"target": "Lck (Homo sapiens, UniProt P06239)", "assay": "TR-FRET kinase assay, Lck", "assay_type": "biochemical", "details": "read-out: IC50 Lck; ATP at Km"}, "[1]": {"tested_on": "intracellular calcium mobilization in Ramos cells following B cell receptor activation", "assay": "Calcium flux assay in Ramos B-cells stimulated with anti-human IgM", "details": "read-out: IC50 Ca2+ flux (calcium mobilization), anti-IgM stimulation"}, "mouse Btk": {"target": "mouse Btk (Mus musculus, UniProt P35991)", "assay": "Competition for probe labeling in isolated mouse splenocytes", "assay_type": "cell-based", "details": "splenocytes pre-incubated with inhibitor, then 1 μM Compound 3"}},
  "data": [
    {"smiles": "Nc1ncnc2c1c(-c1ccc(Oc3ccccc3)cc1)nn2C1CCOCC1", "values": [
      {"measurement": "IC50", "setting": "Abl", "value": 810, "unit": "nM"},
      {"measurement": "IC50", "setting": "Btk", "value": 31, "unit": "nM"},
      {"measurement": "IC50", "setting": "c-met", "value": 82000, "unit": "nM"},
      {"measurement": "IC50", "setting": "Lck", "value": 10, "unit": "nM"},
      {"measurement": "IC50", "setting": "[1]", "value": 620, "unit": "nM"},
      {"measurement": "Competition for labeling of the 70 kD band (mouse Btk)", "setting": "mouse Btk", "value": "effectively competed away"}
    ]}
  ]
}
